As usually defined, the EC50 is the concentration that produces a half-maximal response. As usually defined, the Ki is the equilibrium dissociation constant of an inhibitor or competing ligand from its target. As a reminder, the IC50 is the concentration that inhibits the measured activity by half. Read a high IC50 as weaker potency in that assay.

Like-named read-outs stand apart in the source and are kept apart here.

One assay concerns WT. The assay is described as follows: microbe, parasite or virus in culture. The assay is classed as cell-based, HIV-1.
Assay [1] deals with recombinant HIV-1 protease (Human immunodeficiency virus type 1 group M subtype B, UniProt P04585). The assay is described as follows: biochemical.
Another assay has as its target T1, GS-7340 Ester Hydrolase (Homo sapiens, UniProt P10619).
T1 construct: from tissue; host or cells: human peripheral blood mononuclear cells (extract and column pools)
T1 sequence (P10619 29-326 limits assumed): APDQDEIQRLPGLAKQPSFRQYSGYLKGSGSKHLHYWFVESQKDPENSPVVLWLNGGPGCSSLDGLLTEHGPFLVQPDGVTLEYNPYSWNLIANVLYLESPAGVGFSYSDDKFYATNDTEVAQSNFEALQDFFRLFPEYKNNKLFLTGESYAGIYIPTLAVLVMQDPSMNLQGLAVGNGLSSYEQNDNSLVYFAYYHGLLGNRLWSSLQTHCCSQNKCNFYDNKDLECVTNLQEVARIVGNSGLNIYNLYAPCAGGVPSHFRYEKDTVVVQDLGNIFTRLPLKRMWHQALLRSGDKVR
T1 sequence (P10619 327-480 limits assumed): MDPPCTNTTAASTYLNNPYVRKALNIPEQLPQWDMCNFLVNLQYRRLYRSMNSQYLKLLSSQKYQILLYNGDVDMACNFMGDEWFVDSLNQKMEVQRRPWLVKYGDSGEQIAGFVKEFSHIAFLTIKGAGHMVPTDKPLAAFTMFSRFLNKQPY
The assay is described as follows: biochemical.

For `Nc1n[nH]c2ccc(CN3C(=O)N(Cc4ccccc4)C(Cc4ccccc4)C(O)C(O)C3Cc3ccccc3)cc12` (centres unmarked) [H(DMP-850), reference compound], in the assay on WT (read-out: Cell-based assay (MT-4) EC50 WT), the EC50 worked out at 165 nM. In addition, the inhibition constant Ki in assay [1] (read-out: Enzymatic assay Ki) amounted to 33 pM.
`COC(=O)CCC(=O)N[C@@H](C)C(=O)N[C@@H](C)C(=O)N1CCC[C@H]1C(=O)N[C@@H](C)C(=O)CCl` [MeOSuC-Ala-Ala-Pro-Ala-CMK] came in with an IC50 against GS-7340 Ester Hydrolase of 200000 to 400000 nM.
`CCOP(=O)(COc1ccc(CC2C(O)C(O)C(Cc3ccc(OC)cc3)N(Cc3cccnc3)C(=O)N2Cc2cccnc2)cc1)OCC` (centres unmarked) [OCH3, m-pyridine, OCH2PO3Et2]: the EC50 in the assay with WT (Human immunodeficiency virus 1, read-out: Cell-based assay (MT-4) EC50 WT) was 115 nM.
Regarding `COc1ccc(S(=O)(=O)N(CC(C)C)CC(O)C(Cc2ccc(OCP(=O)(OCc3ccccc3)OC(C)C(=O)OCc3ccccc3)cc2)NC(=O)OC2COC3OCCC23)cc1` (centres unmarked) [drawing 658 R1=OBn R2=Lac-Bn], the Ki in assay [1] (Ki (pM)) is 10 to 100 pM.
With `COc1ccc(S(=O)(=O)N(CC(C)C)CC(O)C(Cc2ccc(OCP(=O)(O)O)cc2)NC(=O)OC2COC3OCCC23)cc1` (centres unmarked) [drawing 661 R1=OH R2=OH], the Ki in assay [1] (Ki (pM)) was in the range of 10 to 100 pM.
Same read-out and setting: the result for `CCOP(=O)(CCNCc1ccc(CC(NC(=O)OC2COC3OCCC23)C(O)CN(CC(C)C)S(=O)(=O)c2ccc(OC)cc2)cc1)OCC` (centres unmarked) [drawing 662 R1=Et R2=Et] reads 10 to 100 pM.
On the same count and under the same terms, the result for `COc1ccc(S(=O)(=O)N(CC(C)C)CC(O)C(Cc2ccc(CNCCP(=O)(O)O)cc2)NC(=O)OC2COC3OCCC23)cc1` (centres unmarked) [drawing 662 R1=H R2=H] reads 10 to 100 pM.
On to `COc1ccc(S(=O)(=O)N(CC(C)C)CC(O)C(Cc2ccc(CNCCP(=O)(O)OC(C)C(=O)O)cc2)NC(=O)OC2COC3OCCC23)cc1` (centres unmarked) [drawing 662 R1=H R2=Lac], for which the Ki in assay [1] (Ki (pM)) fell in the range of 10 to 100 pM.
For `COc1ccc(S(=O)(=O)N(CC(C)C)CC(O)C(Cc2ccc(CN(C)CCP(=O)(O)O)cc2)NC(=O)OC2COC3OCCC23)cc1` (centres unmarked) [drawing 663 R1=H R2=H], the inhibitory constant (Ki) in assay [1] (Ki (pM)) lay in the range of 10 to 100 pM.
Still for that read-out and setting: next, `CCOP(=O)(CON=Cc1ccc(CC(NC(=O)OC2COC3OCCC23)C(O)CN(CC(C)C)S(=O)(=O)c2ccc(OC)cc2)cc1)OCC` (centres unmarked) [drawing 664 R1=Et R2=Et]: 10 to 100 pM.

The values above are taken from patent US20060115815A1 (priority 2002, published 2006).
